Source: patent publication US12227895B2, “Odor reduction and bacterial control on a textile material” (Microban Products Company, priority 2019, dated 2025)

Tested on: bacteria
Conditions: after 25 home launderings (FIG. 3)

O=C(O)c1ccccc1 [benzoic acid]
efficacy after home launderings: able to maintain efficacy following multiple washing cycles
